Source: PMC4161151 (Journal of Medicinal Chemistry, 2014)

Chains of the proteins cited; added tags and fusions are not shown. Lines headed by an entry give the natural chain unless they say otherwise; changes in a name come on top.
UniProt P35372, whole entry: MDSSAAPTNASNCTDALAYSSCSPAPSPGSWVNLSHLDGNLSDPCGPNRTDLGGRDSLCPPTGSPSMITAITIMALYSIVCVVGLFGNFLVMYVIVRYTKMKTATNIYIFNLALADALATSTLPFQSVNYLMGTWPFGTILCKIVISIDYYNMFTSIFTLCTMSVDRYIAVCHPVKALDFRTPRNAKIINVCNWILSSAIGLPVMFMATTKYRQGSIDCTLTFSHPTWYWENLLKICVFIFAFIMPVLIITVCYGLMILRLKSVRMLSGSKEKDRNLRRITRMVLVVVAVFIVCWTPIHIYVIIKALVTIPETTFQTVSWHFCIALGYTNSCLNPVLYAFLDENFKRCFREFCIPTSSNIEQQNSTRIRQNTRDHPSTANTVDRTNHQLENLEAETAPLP
UniProt P41145: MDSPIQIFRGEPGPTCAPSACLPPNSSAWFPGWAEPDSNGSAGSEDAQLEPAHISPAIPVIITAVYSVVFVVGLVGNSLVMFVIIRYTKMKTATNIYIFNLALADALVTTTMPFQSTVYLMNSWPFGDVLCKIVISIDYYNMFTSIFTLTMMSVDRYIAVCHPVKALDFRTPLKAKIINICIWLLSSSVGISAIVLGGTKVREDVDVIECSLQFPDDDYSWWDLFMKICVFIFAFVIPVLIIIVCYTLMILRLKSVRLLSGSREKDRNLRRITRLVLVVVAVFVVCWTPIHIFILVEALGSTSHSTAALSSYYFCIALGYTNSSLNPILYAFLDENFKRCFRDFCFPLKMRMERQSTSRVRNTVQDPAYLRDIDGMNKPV

Legend:
μ opioid receptor [1] = biological target: T1, μ opioid receptor (Homo sapiens, UniProt P35372); assay: biochemical
κ opioid receptor [2] = biological target: T2, κ opioid receptor (Homo sapiens, UniProt P41145); assay: biochemical
κ opioid receptor [3] = biological target: T2, κ opioid receptor; conditions: ratio of Ke values; for δ/κ: selectivity for κ relative to δ; for μ/κ: selectivity for κ relative to μ
δ opioid receptor = δ opioid receptor (Homo sapiens, UniProt P41143); assay: biochemical
μ opioid receptor [4] = biological target: T1, μ opioid receptor; conditions: cloned human μ receptor; mean (SE), at least three independent experiments

SMILES	Kb (μ opioid receptor [1]) [nM]	Kb (κ opioid receptor [2]) [nM]	δ/κ (κ opioid receptor [3])	μ/κ (κ opioid receptor [3])	Kb (δ opioid receptor) [nM]	Ke μ, DAMGO (μ opioid receptor [4]) [nM]
CC(C)[C@@H](CN1CC[C@@](C)(c2ccccc2)[C@@H](C)C1)NC(=O)[C@H]1Cc2ccc(O)cc2CN1 [Compound 4, (3R)-N-[(1S)-1-{[(3R,4R)-3,4-Dimethyl-4-phenylpiperidin-1-yl]methyl}-2-methylpropyl]-7-hydroxy-1,2,3,4-tetrahydroisoquinoline-3-carboxamide]	8.9 ± 3	0.024 ± 0.01	18400	370	442 ± 130	
CC(C)[C@@H](CN1CC[C@@](C)(c2cccc(F)c2)[C@@H](C)C1)NC(=O)[C@H]1Cc2ccc(O)cc2CN1 [Compound 5, (3R)-N-[(1S)-1-{[(3R,4R)-4-(3-Fluorophenyl)-3,4-dimethylpiperidin-1-yl]methyl}-2-methylpropyl]-7-hydroxy-1,2,3,4-tetrahydroisoquinoline-3-carboxamide]	14.8 ± 5	0.01 ± 0.004	24900	1480	249 ± 44	
CC(C)[C@@H](CN1CC[C@@](C)(c2cccc(O)c2)[C@@H](C)C1)NC(=O)[C@H]1Cc2ccc(O)cc2CN1 [JDTic, (3R)-1,2,3,4-tetrahydro-7-hydroxy-N-[(1S)-1-[[(3R,4R)-4-(3-hydroxyphenyl)-3,4-dimethyl-1-piperidinyl]methyl]-2-methylpropyl]-3-isoquinolinecarboxamide, reference compound]						25
